In patent publication US9670226B2, “Sesquiterpenoids” (National Institute of Biological Sciences, Beijing, priority 2014, dated 2017):

Test system: NF-κB activation
Test: NF-κB activation (SAR analogs and biotin probes)
Settings: in the presence of excess reducing agent dithiothreitol (DTT)

C=C1C(=O)O[C@@H]2[C@@H]3[C@@H](C[C@@]4(O)[C@]3(O)CC[C@]43C(=O)C[C@H]4C(=C)CC[C@H]5C(=C)C(=O)O[C@@H]5[C@H]43)C(=C)CC[C@@H]12 [Compound 223, (+)-Ainsliadimer A]
inhibitory activity against NF-κB activation: lost its inhibitory activity
